Measurements reported in paper PMC5476196, “Uptake, biotransformation and elimination of selected pharmaceuticals in a freshwater invertebrate measured using liquid chromatography tandem mass spectrometry” (Chemosphere, 2017).

Test system: Gammarus pulex
Assay: Biotransformation products in G. pulex after exposure to propranolol, carbamazepine or diazepam (LC-MS/MS)

In the case of `CC(C)NCC(O)COc1ccc(OS(=O)(=O)O)c2ccccc12` (centres unmarked), the “mean concentration of biotransformation product at 48 h (end of the uptake phase)” value (after exposure to the precursor compound (propranolol 10 μg L^−1, diazepam 1 μg L^−1)) was 75 ± 17 ng g^−1 dw and the “mean concentration of biotransformation product at 96 h” value (propranolol exposure, end of elimination phase) was 84 ± 4 ng g^−1 dw.
